# scFv variants of Ab-91 (heavy chain) against a SARS-CoV-2 spike peptide

Antigen: PDVDLGDISGINAS, a 14-residue peptide of the SARS-CoV-2 spike HR2 region.

Each scFv is VL, three GGGGS repeats, VH, as in the parent Ab-91, and differs from it in the CDRs of the heavy chain only.
VL: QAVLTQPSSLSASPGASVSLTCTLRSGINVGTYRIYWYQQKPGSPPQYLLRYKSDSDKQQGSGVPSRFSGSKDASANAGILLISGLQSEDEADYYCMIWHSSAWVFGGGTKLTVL
VH: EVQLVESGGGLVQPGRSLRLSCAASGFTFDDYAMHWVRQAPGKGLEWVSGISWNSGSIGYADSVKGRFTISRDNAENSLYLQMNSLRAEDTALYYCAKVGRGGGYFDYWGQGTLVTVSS

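Phage display of a naive human antibody library on the peptide gave the parent. The library (AAYL51) carries one to three amino acid substitutions per variant, with no insertions or deletions. Affinity was read by AlphaSeq, a pooled yeast mating assay with surface-displayed partners. Binding brings cells together so that they mate, and sequencing counts the barcode pairs among the diploids. The ratio of observed to expected reads was calibrated, replicate by replicate, on BCL2-family standards whose Kd was known from biolayer interferometry. There are three technical replicates.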

Positions count from residue 1 of the parent VH; F27D puts D in place of F. Affinities are written as log10 Kd with Kd in nM; a lower number is a better binder. "n.d." marks a missing value. The strain was present, yet no cells mated with the target were sequenced in that replicate, which points to weak or no binding. Empty control strains, which show no peptide, gave a signal in 21% of pairings with library AAYL51; the median was 4.54 and 95% of these signals were weaker than 3.26. No background was subtracted. Also given: how often the same scFv was detected with the empty control strains, with their mean in brackets. In this assay the parent's reference entry averaged 1.86; its copy inside this library read 0.88.

changes,log10 Kd (nM) by replicate,empty controls
F27D M34I H35V,n.d. / 3.68 / 2.57,0/9
F27T F29D A61V,2.92 / n.d. / n.d.,0/9
I51F G56E,n.d. / 5.80 / 4.54,1/9 (4.37)
F27T S55M S57D,n.d. / n.d. / n.d.,1/9 (4.84)
H35F G59L Y60F,n.d. / n.d. / n.d.,1/9 (3.73)
G26E M34Q I58T,4.22 / 3.74 / n.d.,5/9 (4.56)
H35Y D62T V99G,n.d. / 4.07 / n.d.,0/9
F29Q M34Q S52Q,4.06 / n.d. / n.d.,1/9 (2.45)
H35L G56W G100T,n.d. / n.d. / n.d.,0/9
I51H S55V G103Y,n.d. / n.d. / n.d.,0/9
D30T M34D G59T,n.d. / n.d. / n.d.,0/9
M34Q H35P W53E,n.d. / 4.58 / n.d.,4/9 (4.12)
M34G I58H D62N,n.d. / n.d. / n.d.,1/9 (3.43)
V64Y G103P G104K,n.d. / n.d. / n.d.,0/9
M34P S63K R101T,2.49 / 1.87 / 1.29,0/9
G26L F27M G50M,4.71 / 4.56 / 5.99,7/9 (4.91)
S57F D62C V99H,n.d. / n.d. / n.d.,2/9 (3.41)
F29L M34P I51P,4.91 / 4.65 / 5.83,7/9 (4.91)
T28R D30T M34H,3.51 / 4.38 / 4.45,8/9 (4.80)
S55D V99L G103P,n.d. / n.d. / n.d.,2/9 (4.59)
G26R D30K D31H,n.d. / n.d. / n.d.,0/9
N54T Y105E Y108I,n.d. / n.d. / 4.91,6/9 (4.79)
F27T G59H G104T,3.27 / 3.90 / n.d.,1/9 (5.41)
G50T I58Y D62F,n.d. / n.d. / n.d.,1/9 (2.97)
G26L A33R G50D,5.34 / n.d. / n.d.,2/9 (4.62)
G26R A61E D107E,n.d. / n.d. / 4.22,0/9
I51H G103Q D107N,n.d. / n.d. / n.d.,3/9 (3.95)
G26A T28K G56T,3.21 / 3.49 / 4.08,5/9 (4.73)
A33I Y60E D62K,n.d. / n.d. / n.d.,0/9
G56M S57D I58R,0.68 / 0.51 / -0.24,3/9 (4.51)
H35C G102R G103S,4.58 / n.d. / n.d.,1/9 (3.54)
G50D S55D K65D,3.29 / n.d. / n.d.,4/9 (5.09)
F27P T28Y K65G,4.47 / n.d. / n.d.,0/9
A33Q G104F Y105P,3.17 / n.d. / n.d.,3/9 (3.89)
F29I D30A D62W,n.d. / n.d. / n.d.,0/9
D30G D62Y K65F,2.48 / 2.64 / 1.95,6/9 (4.26)
M34F G50F V99C,n.d. / n.d. / n.d.,1/9 (2.60)
F29Q D31V Y105M,n.d. / 3.58 / n.d.,0/9
S57D V64L Y105K,3.50 / 3.44 / 3.64,6/9 (5.01)
T28Q G50D I58T,5.00 / n.d. / n.d.,1/9 (4.84)
F29C V64A G100Q,4.84 / 3.86 / 4.14,4/9 (4.87)
Y32P S55R G100M,n.d. / 5.09 / 5.44,3/9 (4.67)
S57Y,2.25 / 1.89 / 1.72,1/9 (5.51)
G26S Y32N S57F,n.d. / 3.59 / 5.16,2/9 (4.13)
Y32N G50Q S63I,n.d. / n.d. / n.d.,0/9
F29G M34I V64T,4.71 / n.d. / n.d.,0/9
F29L A61Y R101W,n.d. / n.d. / n.d.,0/9
W53V D62H G104A,n.d. / n.d. / n.d.,1/9 (2.45)
S57T I58L K65Y,3.14 / 3.04 / 3.11,0/9
I51V S52I S55R,4.06 / n.d. / n.d.,5/9 (4.23)
V99T G103Y,n.d. / n.d. / n.d.,1/9 (2.70)

The 8 strongest on average among those seen in every replicate, once more:

changes,log10 Kd (nM) by replicate,empty controls
G56M S57D I58R,0.68 / 0.51 / -0.24,3/9 (4.51)
M34P S63K R101T,2.49 / 1.87 / 1.29,0/9
S57Y,2.25 / 1.89 / 1.72,1/9 (5.51)
D30G D62Y K65F,2.48 / 2.64 / 1.95,6/9 (4.26)
S57T I58L K65Y,3.14 / 3.04 / 3.11,0/9
S57D V64L Y105K,3.50 / 3.44 / 3.64,6/9 (5.01)
G26A T28K G56T,3.21 / 3.49 / 4.08,5/9 (4.73)
T28R D30T M34H,3.51 / 4.38 / 4.45,8/9 (4.80)

Values reported by Engelhart et al. 2022, doi:10.1038/s41597-022-01779-4 (FLAb copy).